Here are results for one substance from paper PMC5663884, “Compositional and expression analyses of the glideosome during the Plasmodium life cycle reveal an additional myosin light chain required for maximum motility” (The Journal of Biological Chemistry, 2017).

For assay [1], the target named is Recombinant GST-tagged PfMyoA (wheat germ cell-free system) (P. falciparum) (UniProt Q8IDR3). Description: optical tweezers (single-molecule three-bead assay); actin filament held between two neutravidin-coated beads, MyoA on a third bead; 8 μM ATP.
The target is the same in assay [2]. Description: optical tweezers (single-molecule three-bead assay); actin filament held between two neutravidin-coated beads, MyoA on a third bead; 0.3 μM ATP.

“Actin filaments (F-actin) (from UniProt P68135 1-377) (natural protein)”: in assay [1], the average duration of acto-MyoA binding events at 8 μM ATP came out at 0.013 s and the rate constant of the single-exponential fit to event lifetimes at 8 μM Mg·ATP was 53 s⁻¹. For the same substance, in assay [2], the average duration of acto-MyoA binding events at 0.3 μM ATP amounted to 0.1 s and the rate constant of the single-exponential fit to event lifetimes at 0.3 μM Mg·ATP came out at 6.9 s⁻¹.
